What was measured:
[1] = target: FGFR4 V550E (E550) (Homo sapiens, UniProt P22455, V550E); conditions: RMS772 E550, 20 μM of drug, 3 hour treatment
[2] = target: FGFR4 N535K (K535) (Homo sapiens, UniProt P22455, N535K); conditions: RMS772 K535, 20 μM of drug, 3 hour treatment

Protein sequences, listed by entry. Tags and fused reporters are not part of them. Residues count along the entry.
UniProt P22455, 22-802 V550E: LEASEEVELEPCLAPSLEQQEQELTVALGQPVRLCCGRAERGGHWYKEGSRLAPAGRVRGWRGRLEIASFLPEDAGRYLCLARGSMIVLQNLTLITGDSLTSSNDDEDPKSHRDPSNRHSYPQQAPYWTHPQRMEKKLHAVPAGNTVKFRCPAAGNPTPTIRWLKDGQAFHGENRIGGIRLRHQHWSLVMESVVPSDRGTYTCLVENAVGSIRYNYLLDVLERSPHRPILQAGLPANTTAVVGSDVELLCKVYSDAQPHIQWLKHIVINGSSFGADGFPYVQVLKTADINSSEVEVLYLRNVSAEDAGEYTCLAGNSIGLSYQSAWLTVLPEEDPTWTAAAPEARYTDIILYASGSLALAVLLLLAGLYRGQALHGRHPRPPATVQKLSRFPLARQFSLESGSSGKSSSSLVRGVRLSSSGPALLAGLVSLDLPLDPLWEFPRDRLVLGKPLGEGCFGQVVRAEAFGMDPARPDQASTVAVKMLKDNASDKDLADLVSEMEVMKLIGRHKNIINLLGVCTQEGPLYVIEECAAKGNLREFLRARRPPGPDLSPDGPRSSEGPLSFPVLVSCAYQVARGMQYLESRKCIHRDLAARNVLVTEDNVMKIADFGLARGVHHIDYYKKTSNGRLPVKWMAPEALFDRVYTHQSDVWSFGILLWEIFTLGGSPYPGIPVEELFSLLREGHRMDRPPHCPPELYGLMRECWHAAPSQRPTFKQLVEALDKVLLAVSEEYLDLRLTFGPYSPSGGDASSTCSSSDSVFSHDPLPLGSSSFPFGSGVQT
UniProt P22455, 22-802 N535K: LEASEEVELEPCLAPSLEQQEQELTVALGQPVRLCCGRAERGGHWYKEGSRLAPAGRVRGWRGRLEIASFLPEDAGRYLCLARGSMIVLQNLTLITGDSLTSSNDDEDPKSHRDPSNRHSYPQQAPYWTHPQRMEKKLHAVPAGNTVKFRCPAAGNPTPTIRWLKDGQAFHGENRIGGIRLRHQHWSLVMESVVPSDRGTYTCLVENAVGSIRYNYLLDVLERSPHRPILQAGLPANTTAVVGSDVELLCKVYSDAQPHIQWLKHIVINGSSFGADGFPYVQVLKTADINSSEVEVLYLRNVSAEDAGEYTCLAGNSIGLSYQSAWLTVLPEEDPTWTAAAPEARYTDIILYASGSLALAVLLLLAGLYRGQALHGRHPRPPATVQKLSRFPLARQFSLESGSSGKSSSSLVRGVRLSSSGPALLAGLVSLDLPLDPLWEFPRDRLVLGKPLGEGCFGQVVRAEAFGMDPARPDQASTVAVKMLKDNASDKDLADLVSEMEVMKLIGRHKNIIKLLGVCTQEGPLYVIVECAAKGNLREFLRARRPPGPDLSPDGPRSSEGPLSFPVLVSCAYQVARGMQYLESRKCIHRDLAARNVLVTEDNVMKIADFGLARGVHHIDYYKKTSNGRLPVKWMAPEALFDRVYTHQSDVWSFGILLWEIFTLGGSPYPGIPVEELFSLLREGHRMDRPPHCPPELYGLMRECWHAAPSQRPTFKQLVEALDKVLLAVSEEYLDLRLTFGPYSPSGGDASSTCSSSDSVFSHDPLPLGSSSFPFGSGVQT

## CCN(CC)CCCCNc1ncc2cc(-c3cc(OC)cc(OC)c3)c(NC(=O)NC(C)(C)C)nc2n1 [PD173074]
[1]
  phospho-FGFR4 (normalized to total FGFR4), of pretreatment levels: 45%
[2]
  phospho-FGFR4 (normalized to total FGFR4), of pretreatment levels: 74%

From patent US8216783B2, “Over-expression and mutation of a tyrosine kinase receptor FGFR4 in tumors” (The United States of America, as represented by the …, priority 2008, dated 2012)
